The entries are a selection whose mix differs from that of the whole data set. The source made the active and inactive calls.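 Rule for the calls: active = compounds whose signal lies at least 3.5 SD above the mean of all wells on their plate; inactive = the rest.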
Assay: inducers of MIN6 beta-cell proliferation, primary screen, ATP luminescence, uHTS (AID 2380);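 note: 0% = DMSO-treated cells in low-serum medium and 100% = 10% serum control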
Conditions: MIN6 cells proliferation, ATPlite luminescence, 48 h; at 10 µM; hits give high values; 100% = growth in 10% serum; cells starved in 0.2% serum
In the case of `CCC(=O)N(c1ccccc1)C1CCN(CCc2ccccc2)CC1`, the proliferation is reported as inactive: -1.33%. For `CCC(=O)N(c1ccccc1)C1(COC)CCN(CCc2cccs2)CC1`, the proliferation was inactive: -4.95%. With `CCC(=O)N(c1ccccc1)C1(COC)CCN(CCn2nnn(CC)c2=O)CC1` the proliferation was inactive: -3.34%.
